Results as given in paper PMC9575183.

Biological target: GFP-RILP LIR3-mutant (triple LIR mutant) (human) (UniProt Q96NA2)
Experiment: co-IP

“LC3 (co-immunoprecipitated with GFP-RILP) (from UniProt Q62625 1-120) (natural protein)” showed a percent reduction of LC3 binding relative to wt RILP of 50%.
